# Binding of CDR-mutated scFvs to a peptide of the spike HR2 region

Values reported by Engelhart et al. 2022, doi:10.1038/s41597-022-01779-4 (FLAb copy).

Target peptide (SARS-CoV-2 spike, HR2 region): PDVDLGDISGINAS

Each scFv is VH, three GGGGS repeats, VL, as in the parent Ab-95, and differs from it in the CDRs of the light chain only.
VH: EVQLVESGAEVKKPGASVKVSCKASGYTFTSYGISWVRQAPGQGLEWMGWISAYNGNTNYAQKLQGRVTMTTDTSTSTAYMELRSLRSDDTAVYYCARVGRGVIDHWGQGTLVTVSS
VL: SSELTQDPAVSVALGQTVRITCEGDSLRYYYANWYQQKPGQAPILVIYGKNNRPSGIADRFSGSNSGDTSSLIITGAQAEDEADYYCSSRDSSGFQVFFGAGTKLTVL

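The parent was found by panning a naive human phage display library on the peptide. AAYL52 was designed without a model: most single CDR substitutions and a random sample of double and triple ones. The assay is AlphaSeq: two haploid yeast populations carry antibody and antigen on their surface. Pairs that bind mate more often; barcode pairs of the diploids are counted by sequencing. Read counts were normalised to the haploid input and turned into Kd by a linear fit to BCL2-family pairs of known affinity, for each replicate. Each pool was mated in three replicate cultures.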

Changes read parent residue, position, new residue, counted from the first residue of the VL shown.
Scale: log10 of Kd in nM, estimated from mating counts; low values are strong binders.
Where no diploid with the target was found in that replicate, the entry reads "ND": below detection, most likely a poor binder, though not proof of it.
Parent in this assay: reference entry 2.31, copy in this library 2.25.
Three control strains display no target. For library AAYL52, 28% of the pairings with them gave a signal, with a median of 3.91 and one signal in twenty below 2.90, so weak values seen in few replicates may be background. The control count says in how many pairings with the empty strains this scFv gave a signal, with their mean in brackets.

{"changes": "S26V S88T S93K", "replicates, log10 nM": "ND / ND / ND", "signal with controls": "2 of 9 (3.36)"}
{"changes": "N52F R53V G94C", "replicates, log10 nM": "3.10 / 3.51 / 4.42", "signal with controls": "3 of 9 (3.77)"}
{"changes": "Y31F S55E G94I", "replicates, log10 nM": "4.07 / 2.29 / 2.62", "signal with controls": "1 of 9 (4.53)"}
{"changes": "E23H Y30Q N33I", "replicates, log10 nM": "3.47 / 4.52 / 4.22", "signal with controls": "5 of 9 (3.28)"}
{"changes": "P54G S55V G94A", "replicates, log10 nM": "2.71 / 2.97 / 3.47", "signal with controls": "2 of 9 (3.57)"}
{"changes": "E23P K50M S88Q", "replicates, log10 nM": "ND / 3.54 / 3.76", "signal with controls": "0 of 9"}
{"changes": "D25W Y31V S92L", "replicates, log10 nM": "3.88 / ND / ND", "signal with controls": "3 of 9 (2.63)"}
{"changes": "A32T P54L Q96M", "replicates, log10 nM": "ND / ND / 3.71", "signal with controls": "3 of 9 (3.44)"}
{"changes": "P54M D91K S93Q", "replicates, log10 nM": "ND / 4.04 / 2.44", "signal with controls": "2 of 9 (3.58)"}
{"changes": "Y30P Y31Q V97R", "replicates, log10 nM": "1.72 / 1.53 / 1.01", "signal with controls": "2 of 9 (4.30)"}
{"changes": "S26A R53N R90M", "replicates, log10 nM": "ND / 5.53 / ND", "signal with controls": "4 of 9 (3.84)"}
{"changes": "G24P A32F D91A", "replicates, log10 nM": "3.82 / 3.49 / ND", "signal with controls": "3 of 9 (3.70)"}
{"changes": "N51S D91P", "replicates, log10 nM": "3.41 / 3.55 / 2.82", "signal with controls": "6 of 9 (3.87)"}
{"changes": "Y29T N33R V97F", "replicates, log10 nM": "ND / 4.48 / ND", "signal with controls": "3 of 9 (4.30)"}
{"changes": "Y30H", "replicates, log10 nM": "1.07 / 0.97 / 0.28", "signal with controls": "7 of 9 (4.56)"}
{"changes": "E23A S89R V97E", "replicates, log10 nM": "3.59 / ND / ND", "signal with controls": "2 of 9 (2.32)"}
{"changes": "R28I S55P F95H", "replicates, log10 nM": "4.10 / 2.86 / 3.95", "signal with controls": "2 of 9 (3.11)"}
{"changes": "A32R R53F S92Y", "replicates, log10 nM": "4.48 / ND / ND", "signal with controls": "0 of 9"}
{"changes": "L27A Y30T P54L", "replicates, log10 nM": "3.46 / 3.10 / 4.37", "signal with controls": "1 of 9 (3.43)"}
{"changes": "Y31N K50G R90I", "replicates, log10 nM": "ND / ND / ND", "signal with controls": "2 of 9 (4.67)"}
{"changes": "R53C R90W G94R", "replicates, log10 nM": "5.29 / 4.19 / ND", "signal with controls": "3 of 9 (3.81)"}
{"changes": "L27T Y31K S93E", "replicates, log10 nM": "ND / 3.48 / ND", "signal with controls": "2 of 9 (3.50)"}
{"changes": "G24T Y30G S89G", "replicates, log10 nM": "2.12 / 2.41 / 1.94", "signal with controls": "4 of 9 (3.90)"}

The closing 3 entries, repeated:

changes	replicates, log10 nM	signal with controls
R53C R90W G94R	5.29 / 4.19 / ND	3 of 9 (3.81)
L27T Y31K S93E	ND / 3.48 / ND	2 of 9 (3.50)
G24T Y30G S89G	2.12 / 2.41 / 1.94	4 of 9 (3.90)